# Results reported in US6262054A (priority 1996, dated 2001).
# Tested on: P388 Murine Tumor
# Excerpt: Combination treatment in mice. The P388 lymphoidal tumor was transplanted intraperitoneally (10^6 cells/mouse) into […] mice. The animals were randomized into control and treated groups after tumor implant. […] Therapy was repeated three times at four day intervals between each treatment.
compound,measurement,setting,value
"CN(Cc1cnc2nc(N)nc(N)c2n1)c1ccc(C(=O)N[C@@H](CCC(=O)O)C(=O)O)cc1 [MTX, methotrexate]",Therapeutic activity (in words),"P388 in mice, maximum tolerated dose",this tumor was responsive to both folate analogues
same,Increased Life-Span,"at maximum tolerated dose, q4d × 3 ip",+238%
